In patent US11465987B2, “Compounds for treatment of cancer” (ONCTERNAL THERAPEUTICS, INC., priority 2012, dated 2022):

System: PC-3_TxR paclitaxel-resistant prostate cancer cells (P-gp over-expressing)
Conditions: compared IC50 values in PC-3 and PC-3/TxR

SMILES: COc1cc(C(=O)c2csc(Nc3ccc4[nH]ccc4c3)n2)cc(OC)c1OC [compound 55, (2-(1H-INDOL-5-YLAMINO)THIAZOL-4-YL)(3,4,5-TRIMETHOXYPHENYL)METHANONE]
- resistance factor: (0.4)
